The source of these data is patent publication EP4567040A1, “CRYSTAL FORM OF FUSED TRICYCLIC DERIVATIVE AND PREPARATION METHOD” (Jiangsu Hengrui Pharmaceuticals Co., Ltd., priority 2022, dated 2024).

Molecules are shown by their SMILES.

This data set concerns the target T1, human PXR (Homo sapiens, UniProt O75469).
T1 construct: host or cells: DPX2 (HepG2 stably transfected)
T1 sequence (O75469 1-434): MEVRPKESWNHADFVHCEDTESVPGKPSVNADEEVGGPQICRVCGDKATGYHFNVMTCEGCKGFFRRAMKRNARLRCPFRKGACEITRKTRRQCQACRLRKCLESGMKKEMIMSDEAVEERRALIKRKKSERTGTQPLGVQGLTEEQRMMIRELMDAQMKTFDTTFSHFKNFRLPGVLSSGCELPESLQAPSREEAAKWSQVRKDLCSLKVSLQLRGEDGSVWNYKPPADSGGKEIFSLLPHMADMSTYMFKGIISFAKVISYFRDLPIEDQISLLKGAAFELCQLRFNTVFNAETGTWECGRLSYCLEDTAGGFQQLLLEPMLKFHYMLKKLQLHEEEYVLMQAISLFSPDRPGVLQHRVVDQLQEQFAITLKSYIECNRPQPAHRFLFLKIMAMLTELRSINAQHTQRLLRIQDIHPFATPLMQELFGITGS
The data set is described as follows: PXR induction assay in DPX2 cells (luciferase reporter). The format is cell-based. On the procedure:
• 1. The potential of the test compounds to induce the activity of drug metabolism enzymes through in vitro activation of PXR was evaluated. EC50 values for the test compounds were obtained by assessing the in vitro activation of PXR by different concentrations of the test compounds (30, 10, 3.33, 1.11, 0.370, and 0.123 µM). The concentrations of the positive control rifampicin were 20, 5, 1.25, 0.312, 0.0781, and 0.195 µM. • 2. Materials and reagents • 1) DPX2 (HepG2 cells were stably transfected with the human PXR gene and the fluorescent reporter gene) cells were purchased from Puracyp (Carlsbad, CA). • 2) The test compounds were provided by the sponsor; the control drug (rifampicin) was purchased from Sigma (St. Louis, MO). • 3) The CellTiter-Fluor™ cell viability assay kit and the One-Glo fluorescence assay kit were purchased from Promega (Madison, WI); fetal bovine serum (FBS) was purchased from Corning (Manassas, VA); the MTS3 shaker was purchased from IKA Labortechnik (Staufen, Germany); DMEM, penicillin, and streptomycin were purchased from local suppliers; hygromycin B and G418 were purchased from Merck (Darmstadt, Germany); the cell culture medium and DPX2 cells were purchased from Puracyp Inc. • 3. Experimental procedures • 3.1. […]
(A reporter such as luciferase makes a cellular process visible.)

Broadly, the fold induction is the ratio of treated to control signal. A low value points to a weak induction. For the setting “compound concentration 0.0195 µM”, `CO[C@H]1/C=C/O[C@@]2(C)Oc3c(C)c(O)c4c(O)c(c(/C=N/N5CCN(C)CC5)c(O)c4c3C2=O)NC(=O)/C(C)=C\C=C\[C@H](C)[C@H](O)[C@@H](C)[C@@H](O)[C@@H](C)[C@H](OC(C)=O)[C@@H]1C` [Rifampicin, reference compound] registered a fold induction at 24 h, 0.0195 µM of 1.33. The fold induction at 24 h, 20 µM (compound concentration 20.0 µM) worked out at 17.6.
